Legend:
calf thymus DNA = assay: UV-vis absorption titration with calf thymus DNA; type: binding; conditions: calf thymus DNA (0-5 μM), Tris buffer
Procedure: The calf thymus DNA was purchased from Sigma-Aldrich Chemical Co. and was purified by phenol-chloroform extraction. The DNA was dissolved in buffer (5 mM Tris, 5 mM NaCl, pH 7.2). The concentration (per base pair) of calf thymus DNA was determined spectrophotometrically on the basic of ε260, 13,200 M^−1cm^−1bp.
Absorption Titration. The binding interaction of the gold(III) porphyrins to duplex DNA has been studied by UV-vis spectroscopy.
where [ctDNA] is the concentration of DNA, Δεap═|εA−εB| in which εA=Aobs/[complex], and Δε=|εB−εF|. εB and εF correspond to the extinction coefficient of DNA-bound gold(III) porphyrin and the free gold(III) porphyrins, respectively.
The effect of temperature on the intrinsic binding constants was investigated. Using the van't Hoff equation (2): […]

[1] = Control UV-vis titration with sodium dodecyl sulfate instead of DNA; type: binding; conditions: sodium dodecyl sulfate (0-5 μM) instead of DNA
Excerpt: See Neidle, S. DNA structure and recognition; Oxford University Press: Oxford, 1994; 74-79.

C1=Cc2nc1c(-c1ccccc1)c1ccc([n-]1)c(-c1ccccc1)c1nc(c(-c3ccccc3)c3ccc([n-]3)c2-c2ccccc2)C=C1.[Au+3].[Cl-] [Complex 1a]
bathochromic shift of the Soret band (calf thymus DNA): 5 nm
bathochromic shift of the Q-band at 520 nm (calf thymus DNA; 2% DMSO): 6 nm
bathochromic shift [1]: 6 nm

Source: patent US20040063681A1, “Methods for using gold (III) complexes as anti-tumor and anti-HIV agents” (priority 2002, published 2004)
